# Source: patent US10632147B2, “Methods and compositions for treating inflammatory disorders” (priority 2007, dated 2020)
# System: Propionibacterium acnes
# Experiment: Log10 reduction assay (suspension test) against P. acnes
# Settings: solution ≤145 ppm AFC, spray gel 40 ppm AFC
smiles,measurement,setting,value
OCl [hypochlorous acid],Log Reduction,5-min contact time,≥5.67
same,Test Sample Log10,5-min contact time,≤1
same,Test Sample Survivors,5-min contact time,<10
same,Log Reduction,15-sec contact time,≥5.67
same,Test Sample Log10,15-sec contact time,≤1
same,Test Sample Survivors,15-sec contact time,<10
